Assay results published in patent publication US9328142B2, “Lipopeptide inhibitors of RAS oncoproteins” (The United States of America, as represented by The …, priority 2011, dated 2016).

Experiments:
[1] = biological target: recombinant truncated GDP-loaded K-Ras (1-166) (Homo sapiens, UniProt P01116)
[2] = tested on: H358 human lung cancer cells with mutated K-Ras; assay: H358 tumor growth in nude mice; assay type: in vivo; conditions: 10 mg/kg s.c. every second day for 20 days
Experimental: 2×10^6 H358 human lung cancer cells with mutated K-Ras were implanted subcutaneously (s.c.) in nude mice. When tumors reached measurable size, 10 mg/kg kR-4A-8 or control (DMSO in buffer) was injected s.c. near the tumor every second day for 20 days.

Ac-C(Fluo)ESGPGLNLNSLNKK(ε-Pal) [HR-6]
Kd ([1]; DPC micelles): > 100 µM

Ac-GLNVKIKKK-e-Pal [kR-4A-8]
toxicity during treatment or necropsy [2]: No toxicity was detected

Ac-C(Fluo)KTPGLNVKIKKK(ε-Pal) [kR-4A-11]
Kd ([1]; DPC micelles): 11.8 ± 1.3 µM

Ac-C(Fluo)KKKKKSKTKK(ε-Pal) [kR-4B-14]
Kd ([1]; DMPC/DHPC bicelles): 1.3 ± 0.1 µM
Kd ([1]; DPC micelles): 10.8 ± 1.6 µM

Like-named read-outs stand apart in the source and are kept apart here.
